Data on one compound can be found in article PMC7866079, “Investigation of Receptor Heteromers Using NanoBRET Ligand Binding” (International Journal of Molecular Sciences, 2021).

This experiment addresses T1, AT1 receptor (Homo sapiens, UniProt P30556).
T1 construct: host or cells: HEK293FT, transient transfection
Kind of experiment: NanoBRET competition binding of TAMRA-AngII, cells expressing Nluc-AT1. As to conditions: competitor at 1 μM. On the procedure:
Figure 8 Competition binding of TAMRA-AngII to the AT1 receptor and the AT1-AT2 heteromer. Cells expressing Nluc-AT1 and treated with various concentrations of TAMRA-AngII (T-AngII) as stated, with increasing concentrations of olmesartan (Olm) (a,b). Cells expressing Nluc-AT1 and treated with various concentrations of TAMRA-AngII as stated, with increasing concentrations of PD 123319 (PD) (c,d). Cells expressing Nluc-AT1 and untagged AT2 and treated with 1 μM olmesartan, various concentrations of TAMRA-AngII as stated, and increasing concentrations of PD 123319 (e,f).
The relative BRET ratio was calculated by normalizing the data, as described in the figure legends. All individual experiments were conducted with duplicate wells.
On the technique in general: Bioluminescence resonance energy transfer reports proximity on the nanometre scale.

With `CCCc1nc(C(C)(C)O)c(C(=O)O)n1Cc1ccc(-c2ccccc2-c2nnn[nH]2)cc1` [olmesartan], the “displacement of TAMRA-AngII binding to Nluc-AT1” value is given as “complete displacement”.
